Source: PubChem BioAssay AID463195 (Sanford-Burnham Center for Chemical Genomics, 2010)
The entries are a selection whose mix differs from that of the whole data set. Some salts and complexes are drawn in separate pieces, as the source files them; their charges need not balance. Calls of active or inactive are those of the source.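 The calls were made as follows: active = inhibition of 40% or more at the single tested concentration; inactive = the rest.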

Assay: growth inhibitors of isogenic TIM10 control yeast, primary screen, counter-screen for tim10-1 yeast inhibitor project, luminescence, uHTS (AID 463195);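 also: wild-type TIM10 isogenic control strain grown at permissive 25 °C; 0% = DMSO yeast wells and 100% = minimal medium wells without yeast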
Conditions: S. cerevisiae TIM10 strain growth, BacTiter-Glo luminescence, 24 h; at 10 µM; active compounds read high

| SMILES | inhibition |
| --- | --- |
| COc1ccc2c(c1O)-c1c(O)c(OC)cc3c1[C@H](C2)[N+](C)(C)CC3.O=[N+]([O-])c1cc([N+](=O)[O-])c([O-])c([N+](=O)[O-])c1[O-] | inactive: 5.32% |
| O=C(OCCN1CCN(CCOCc2ccccc2)CC1)C(O)(c1ccccc1)c1ccccc1 | inactive: 4.93% |
| O=C(OC1CN2CCC1CC2)c1ccc([N+](=O)[O-])cc1 (stereo not drawn) | inactive: -206% |
| COc1ccc(OP(C)(=O)Nc2ccc(SC(F)(F)F)cc2)cc1 (stereo not drawn) | inactive: 28.6% |
| CCOC(=O)c1ccc(NP(C)(=O)Oc2ccc(F)cc2)cc1 (stereo not drawn) | inactive: 7.23% |
| CCCCCOc1ccc(NP(C)(=O)Oc2ccc(Cl)cc2Cl)cc1 (stereo not drawn) | inactive: 18.5% |
| O=[N+]([O-])c1cc([N+](=O)[O-])c(OC2CCCCC2O)c([N+](=O)[O-])c1 (stereo not drawn) | inactive: 3.7% |
| CP(=O)(Nc1ccccc1)Oc1ccc(F)cc1 (stereo not drawn) | inactive: -4.69% |
| CCN(CC)CCCOC(=O)C(O)(c1ccccc1)C1CCCCC1 (stereo not drawn) | inactive: -3.38% |
| COc1ccc(NP(C)(=O)Oc2ccccc2OC)cc1 (stereo not drawn) | inactive: 18.6% |
| CN(C)CCOC(=O)C(O)(c1ccccc1)C1CCCCC1 (stereo not drawn) | inactive: -21.6% |
| COc1ccc(OP(C)(=O)Nc2cccc(Br)c2)cc1 (stereo not drawn) | inactive: -0.604% |
| O=[N+]([O-])c1cc([N+](=O)[O-])c(NCC2CCS(=O)(=O)C2)c([N+](=O)[O-])c1 (stereo not drawn) | inactive: -2.29% |
| CCOP(C)(=S)SCC(=O)NC(C)(CC)C(=O)O (stereo not drawn) | inactive: -14.3% |
| CP(=O)(Nc1ccc(SC(F)(F)F)cc1)Oc1ccc(F)cc1 (stereo not drawn) | inactive: 14.1% |
| Cc1ccccc1NP(C)(=O)Nc1ccccc1C | inactive: -8.21% |
| CP(=O)(Nc1ccc2c(c1)OCCO2)Oc1ccccc1 (stereo not drawn) | inactive: -2.84% |
| CP(=O)(Oc1ccccc1)N1CCOC1=O (stereo not drawn) | inactive: 7.31% |
| CCc1ccc(OP(C)(=O)Nc2cccnc2)cc1 (stereo not drawn) | inactive: -2.62% |
| COc1ccccc1OP(C)(=O)Nc1c(C)n(C)n(-c2ccccc2)c1=O (stereo not drawn) | inactive: -16.9% |
| O=C(OCCCN1CCCC1)C(O)(c1ccccc1)C1CCCCC1 (stereo not drawn) | inactive: 2.57% |
| CCN(CC)CC(O)COC(=O)C(O)(c1ccccc1)C1CCCCC1 (stereo not drawn) | inactive: 7.29% |

| SMILES | inhibition |
| --- | --- |
| COc1ccc(OP(C)(=O)Nc2ccc(Br)cc2)cc1 (stereo not drawn) | inactive: 0.772% |
| CN(C)C(=O)c1c([N+](=O)[O-])cc([N+](=O)[O-])cc1[N+](=O)[O-] | inactive: 15.8% |
| CP(=O)(Nc1ccc(Cl)cc1)Oc1ccc(F)cc1 (stereo not drawn) | inactive: 15.6% |
| CC(C)(C)c1ccc(OP(C)(=O)O)cc1 | inactive: 8.45% |
| COc1ccccc1OP(C)(=O)Nc1ccccc1Br (stereo not drawn) | inactive: -1.99% |
| CP(=O)(OC12CC3CC(CC(C3)C1)C2)OC12CC3CC(CC(C3)C1)C2 | inactive: 33.2% |
| CCOC(=O)c1ccc(NP(C)(=O)Oc2ccc(Cl)cc2)cc1 (stereo not drawn) | inactive: 6.52% |
| Nc1ccc2c(ccc3cccnc32)n1.O=[N+]([O-])c1cc([N+](=O)[O-])c(O)c([N+](=O)[O-])c1 | inactive: 21.6% |
| COc1ccc(OP(C)(=O)Nc2ccccc2Br)cc1 (stereo not drawn) | inactive: 5.65% |
| COc1ccccc1OP(C)(=O)Nc1ccc(C)c(C)c1 (stereo not drawn) | inactive: -3.6% |
| Cc1cc(C)cc(OP(C)(=O)Nc2cccc(C(F)(F)F)c2)c1 (stereo not drawn) | inactive: 25.9% |
| CP(=O)(OCCOc1ccccc1)OCCOc1ccccc1 | inactive: -2.75% |
| CP(=O)(Nc1ccc(Cl)cc1Cl)Oc1ccccc1 (stereo not drawn) | inactive: -7.44% |
| Cc1nc2ccc3ccccc3c2o1.O=[N+]([O-])c1cc([N+](=O)[O-])c(O)c([N+](=O)[O-])c1 | inactive: 28.3% |
| CN(C)CCOC(=O)C(O)(c1ccccc1)C1CCCC1 (stereo not drawn) | inactive: 5.47% |
| COc1ccccc1OP(C)(=O)Nc1ccc(Br)cc1 (stereo not drawn) | inactive: -6.15% |
| CCc1ccc(OP(C)(=O)O)cc1 | inactive: 2.37% |
| CP(=O)(Nc1ccccn1)Oc1ccccc1 (stereo not drawn) | inactive: 8.5% |
| COc1ccccc1OP(C)(=O)Nc1ccc(C)cc1C (stereo not drawn) | inactive: -8.26% |
| O=[N+]([O-])c1cc([N+](=O)[O-])c(Nc2ccccn2)c([N+](=O)[O-])c1 | active: 55% |
| Cc1c(NP(C)(=O)Oc2ccc(C(C)C)cc2)c(=O)n(-c2ccccc2)n1C (stereo not drawn) | inactive: 5.45% |
